# Experimental data: patent publication US8772480B2, “Inhibitors of PI3 kinase and/or mTOR” (priority 2009, dated 2014)
# Biological target: mammalian target of rapamycin (mTOR) (Homo sapiens (Human), UniProt P42345)
# Settings: read-out: mTOR IC50
row,SMILES,IC50 [µM]
1,"COc1ncc(Nc2nc(COCC(F)(F)F)ccc2-c2nc(C)nc(N)n2)cc1F [Example 199, 4-(2-(5-Fluoro-6-Methoxypyridin-3-Ylamino)-6-((2,2,2-Trifluoroethoxy)Methyl)Pyridin-3-yl)-6-Methyl-1,3,5-Triazin-2-Amine]",> 10
2,"Cc1ccc(-c2nc(C)nc(N)n2)c(Nc2cncc(F)c2)n1 [Example 200, 4-(2-(5-Fluoropyridin-3-Ylamino)-6-Methylpyridin-3-yl)-6-Methyl-1,3,5-Triazin-2-Amine]",> 10
3,"COc1ccc(Nc2ncc(CN3CCSCC3)cc2-c2nc(C)nc(N)n2)cn1 [Example 201, 4-(2-(6-Methoxypyridin-3-Ylamino)-5-(Thiomorpholinomethyl)Pyridin-3-yl)-6-Methyl-1,3,5-Triazin-2-Amine]",> 10
4,"COc1ccc(Nc2ncc(CN3CC[S+]([O-])CC3)cc2-c2nc(C)nc(N)n2)cn1 [Example 202, 4-(2-(6-Methoxypyridin-3-Ylamino)-5-(1-Sulfoxidemorpholinomethyl)Pyridin-3-yl)-6-Methyl-1,3,5-Triazin-2-Amine]",> 10
5,"Cc1nc(N)nc(-c2cc(CN3CCN(S(C)(=O)=O)CC3)cnc2Nc2cnc3c(c2)ncn3C)n1 [Example 203, N-(3-(4-Amino-6-Methyl-1,3,5-Triazin-2-yl)-5-((4-(Methylsulfonyl)Piperazin-1-yl)Methyl)Pyridin-2-yl)-3-Methyl-3H-Imidazo[4,5-B]Pyridin-6-Amine]",> 10
6,"COc1ccc(Nc2ncc(N3CC[C@H](CO)C3)cc2-c2nc(C)nc3[nH]cnc23)cn1 [Example 204, ((3S)-1-(6-((6-Methoxy-3-Pyridinyl)Amino)-5-(2-Methyl-9H-Purin-6-yl)-3-Pyridinyl)-3-Pyrrolidinyl)Methanol]",> 10
7,"COc1ccc(Nc2ncc(N3CC[C@H](O)C3)cc2-c2nc(C)nc3[nH]cnc23)cn1 [Example 205, (3S)-1-(6-((6-Methoxy-3-Pyridinyl)Amino)-5-(2-Methyl-9H-Purin-6-yl)-3-Pyridinyl)-3-Pyrrolidinol]",0.839
8,"COc1ccc(Nc2ncc(N3CC[C@@H](O)C3)cc2-c2nc(C)nc3[nH]cnc23)cn1 [Example 206, (3R)-1-(6-((6-Methoxy-3-Pyridinyl)Amino)-5-(2-Methyl-9H-Purin-6-yl)-3-Pyridinyl)-3-Pyrrolidinol]",0.594
9,"COc1ccc(Nc2ncc(CN3CCN(S(=O)(=O)N(C)C)CC3)cc2-c2nc(C)nc(N)n2)cn1 [Example 211, 4-((5-(4-Amino-6-Methyl-1,3,5-Triazin-2-yl)-6-((6-Methoxy-3-Pyridinyl)Amino)-3-Pyridinyl)Methyl)-N,N-Dimethyl-1-Piperazinesulfonamide]",> 10
10,"COc1ccc(Nc2ncc(CN3CCC(O)CC3)cc2-c2nc(C)nc(N)n2)cn1 [Example 215, 1-((5-(4-Amino-6-Methyl-1,3,5-Triazin-2-yl)-6-(6-Methoxypyridin-3-Ylamino)Pyridin-3-yl)Methyl)Piperidin-4-ol]",> 10
11,"COc1ccc(Nc2ncc(CN3CC[C@@H](CO)C3)cc2-c2nc(C)nc(N)n2)cn1 [Example 217, (R)-(1-((5-(4-Amino-6-Methyl-1,3,5-Triazin-2-yl)-6-(6-Methoxypyridin-3-Ylamino)Pyridin-3-yl)Methyl)Pyrrolidin-3-yl)Methanol]",> 10
12,"COc1ccc(Nc2ncc(CN3CCOC[C@@H]3C)cc2-c2nc(C)nc(N)n2)cn1 [Example 219, (S)-4-(2-(6-Methoxypyridin-3-Ylamino)-5-((3-Methylmorpholino)Methyl)Pyridin-3-yl)-6-Methyl-1,3,5-Triazin-2-Amine]",> 10
13,"COc1ccc(Nc2ncc(CN3CCC3)cc2-c2nc(C)nc(N)n2)cn1 [Example 220, 4-(5-(Azetidin-1-Ylmethyl)-2-(6-Methoxypyridin-3-Ylamino)Pyridin-3-yl)-6-Methyl-1,3,5-Triazin-2-Amine]",> 10
14,"COc1ccc(Nc2ncc(CN3CCCC3)cc2-c2nc(C)nc(N)n2)cn1 [Example 221, 4-(2-(6-Methoxypyridin-3-Ylamino)-5-(Pyrrolidin-1-Ylmethyl)Pyridin-3-yl)-6-Methyl-1,3,5-Triazin-2-Amine]",> 10
15,"COc1ccc(Nc2ncc(CN3CCCCC3)cc2-c2nc(C)nc(N)n2)cn1 [Example 222, 4-(2-(6-Methoxypyridin-3-Ylamino)-5-(Piperidin-1-Ylmethyl)Pyridin-3-yl)-6-Methyl-1,3,5-Triazin-2-Amine]",> 10
16,"COc1ccc(Nc2ncc(CN3CC(S(C)(=O)=O)C3)cc2-c2nc(C)nc(N)n2)cn1 [Example 223, 4-(2-(6-Methoxypyridin-3-Ylamino)-5-((3-(Methylsulfonyl)Azetidin-1-yl)Methyl)Pyridin-3-yl)-6-Methyl-1,3,5-Triazin-2-Amine]",> 10
17,"COc1ccc(Nc2ncc(CN3CCC(S(C)(=O)=O)CC3)cc2-c2nc(C)nc(N)n2)cn1 [Example 224, 4-(2-(6-Methoxypyridin-3-Ylamino)-5-((4-(Methylsulfonyl)Piperidin-1-yl)Methyl)Pyridin-3-yl)-6-Methyl-1,3,5-Triazin-2-Amine]",> 10
18,"COc1ccc(Nc2ncc(CNCCO)cc2-c2nc(C)nc(N)n2)cn1 [Example 225, 2-((5-(4-Amino-6-Methyl-1,3,5-Triazin-2-yl)-6-(6-Methoxypyridin-3-Ylamino)Pyridin-3-yl)Methylamino)Ethanol]",> 10
19,"COc1ccc(Nc2ncc(CN[C@H](C)CO)cc2-c2nc(C)nc(N)n2)cn1 [Example 226, (R)-2-((5-(4-Amino-6-Methyl-1,3,5-Triazin-2-yl)-6-(6-Methoxypyridin-3-Ylamino)Pyridin-3-yl)Methylamino)Propan-1-ol]",> 10
20,"COCCNCc1cnc(Nc2ccc(OC)nc2)c(-c2nc(C)nc(N)n2)c1 [Example 227, 4-(5-((2-Methoxyethylamino)Methyl)-2-(6-Methoxypyridin-3-Ylamino)Pyridin-3-yl)-6-Methyl-1,3,5-Triazin-2-Amine]",> 10
21,"COc1ccc(Nc2ncc(CN3CC(O)C3)cc2-c2nc(C)nc(N)n2)cn1 [Example 229, 1-((5-(4-Amino-6-Methyl-1,3,5-Triazin-2-yl)-6-(6-Methoxypyridin-3-Ylamino)Pyridin-3-yl)Methyl)Azetidin-3-ol]",> 10
22,"COc1ccc(Nc2ncc(CN3CC4(C3)NC(=O)NC4=O)cc2-c2nc(C)nc(N)n2)cn1 [Example 230, 2-((5-(4-Amino-6-Methyl-1,3,5-Triazin-2-yl)-6-(6-Methoxypyridin-3-Ylamino)Pyridin-3-yl)Methyl)-2,5,7-Triazaspiro[3.4]Octane-6,8-Dione]",> 10
23,"COc1ccc(Nc2ncc(CN3CC(N)C3)cc2-c2nc(C)nc(N)n2)cn1 [Example 231, 4-(5-((3-Aminoazetidin-1-yl)Methyl)-2-(6-Methoxypyridin-3-Ylamino)Pyridin-3-yl)-6-Methyl-1,3,5-Triazin-2-Amine]",> 10
24,"COc1ccc(Nc2ncc(CN3CC(NS(C)(=O)=O)C3)cc2-c2nc(C)nc(N)n2)cn1 [Example 232, N-(1-((5-(4-Amino-6-Methyl-1,3,5-Triazin-2-yl)-6-(6-Methoxypyridin-3-Ylamino)Pyridin-3-yl)Methyl)Azetidin-3-yl)Methanesulfonamide]",3.74
25,"COc1ccc(Nc2ncc(CN3CCn4ncnc4C3)cc2-c2nc(C)nc(N)n2)cn1 [Example 233, 4-(5-((5,6-Dihydro-[1,2,4]Triazolo[1,5-A]Pyrazin-7(8H)-yl)Methyl)-2-(6-Methoxypyridin-3-Ylamino)Pyridin-3-yl)-6-Methyl-1,3,5-Triazin-2-Amine]",4.8
